Assay results as given in PubChem BioAssay AID1463 (National Center for Advancing Translational Sciences (NCATS), 2008).
The whole screen tested about 280,000 compounds, of which about 2,600 (0.93%) were called active. The source calls these results inconclusive, neither active nor inactive. Calls follow the shape of the dose curve; as a rule, active = well fitted curve in the direction sought with a large enough effect; inconclusive = small, poorly fitted or top-dose-only effect; inactive = flat fitted curve, though single readings scatter.

Experiment: Counterscreen qHTS for Inhibitors of Tau Fibril Formation, Fluorescence Polarization; also: nearly all actives have a fitted effect of over 55% in size
Conditions: tau K18 P301L (four-repeat tau fragment) Alexa594 fluorescence, heparin fibrillization
Potency is read from the fitted curve at half-maximal effect.

SMILES | Potency
CS(=O)(=O)c1cc([N+](=O)[O-])c2no[n+]([O-])c2c1 | inconclusive: 14.1 µM
O=c1c2cc([N+](=O)[O-])ccc2[nH]c2c([N+](=O)[O-])cc([N+](=O)[O-])cc12 | inconclusive: 25.1 µM
